Yeast mating assay B: variants of the scFv Ab-14

Binding partner: SARS-CoV-2 spike HR2 peptide, sequence PDVDLGDISGINAS.

Parent: Ab-14, a human scFv built as VH, a (GGGGS)3 linker, VL. Only the CDRs of the light chain vary.
VH: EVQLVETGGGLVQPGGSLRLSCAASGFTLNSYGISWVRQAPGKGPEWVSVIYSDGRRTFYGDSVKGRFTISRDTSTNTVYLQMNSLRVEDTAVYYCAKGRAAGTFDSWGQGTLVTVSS
VL: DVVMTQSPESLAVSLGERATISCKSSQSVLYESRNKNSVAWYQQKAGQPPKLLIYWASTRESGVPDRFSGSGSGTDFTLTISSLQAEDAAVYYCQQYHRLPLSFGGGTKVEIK

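Phage display of a naive human antibody library on the peptide gave the parent. This is the validation round: designs drawn from the data on random variants, tested in the same kind of assay. Group labels follow the data file (Ctrl: baseline library sampled from a position-specific scoring matrix, with some repeated check sequences; En: ensemble of fine-tuned language models; GP: Gaussian process model; HC: hill climbing; Gen: genetic algorithm; Gibbs: Gibbs sampling; a sequence that several methods proposed may carry one label only). AlphaSeq pools MATa yeast showing the antibodies with MATalpha yeast showing the peptide. The frequency of each diploid, read from paired DNA barcodes, reflects how well the two displayed proteins bind. Each replicate has its own calibration line, from reference interactions of the BCL2 family. Mating was done six times.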

Each variant is given by its three light chain CDRs, as the data file delimits them; those of the parent are KSSQSVLYESRNKNSVA, WASTRES, QQYHRLPLS.
The Kd shown is the geometric mean over detected replicates; a lower Kd is a better binder.
"no signal" marks a missing value. The strain was present, yet no cells mated with the target were sequenced in any replicate, which points to weak or no binding.
As a blank, each scFv also met three strains without target: over all light chain designs, 4% of these pairings were detected, typically at 430 nM and seldom below 38 nM.
The authors' rule: three or more of the six replicates give a measured affinity, fewer mean a poor binder.
The range of this assay differs from that of the first round, and the authors advise against merging the two.

{"CDR-L1": "KLQQSVQYESRNQNAVA", "CDR-L2": "EASQRES", "CDR-L3": "QQYHRLPLS", "group": "GP_Gibbs", "Kd (apparent)": "570 pM", "seen in": "6 of 6"}
{"CDR-L1": "KSSASVEYEDRNKNSVA", "CDR-L2": "HASTREQ", "CDR-L3": "QQYHRLPLS", "group": "GP_Gibbs", "Kd (apparent)": "4.8 nM", "seen in": "6 of 6"}
{"CDR-L1": "KLSQSVLYESRNKNSVA", "CDR-L2": "NGSTRED", "CDR-L3": "QQYHRLPLS", "group": "GP_Gen", "Kd (apparent)": "350 pM", "seen in": "6 of 6"}
{"CDR-L1": "KSSISYLGEKVNKNSVA", "CDR-L2": "EASTRES", "CDR-L3": "QQYHRLPLS", "group": "GP_HC", "Kd (apparent)": "710 pM", "seen in": "6 of 6"}
{"CDR-L1": "KSWQSVLYESRYKNSVA", "CDR-L2": "QASTRES", "CDR-L3": "QQYVRLPLS", "group": "Ctrl", "Kd (apparent)": "1.7 nM", "seen in": "6 of 6"}
{"CDR-L1": "KSSQAVLYESRYKNSVA", "CDR-L2": "YASTRES", "CDR-L3": "QQYHRLPLD", "group": "Ctrl", "Kd (apparent)": "no signal", "seen in": "0 of 6"}
{"CDR-L1": "SMQLDQIEGNQQQNSIA", "CDR-L2": "GESEADM", "CDR-L3": "QHYERLPLT", "group": "En_Gibbs", "Kd (apparent)": "no signal", "seen in": "0 of 6"}
{"CDR-L1": "KSSQSVLYESRNKNSVA", "CDR-L2": "SASTRAS", "CDR-L3": "QQYHRLPLQ", "group": "Ctrl", "Kd (apparent)": "33 nM", "seen in": "6 of 6"}
{"CDR-L1": "HLGLVTMLESTVRNSVA", "CDR-L2": "NNSTREE", "CDR-L3": "QQYDRLPLS", "group": "En_Gen", "Kd (apparent)": "150 nM", "seen in": "3 of 6"}
{"CDR-L1": "SLHLYTLTEKNNNNSIA", "CDR-L2": "EKSYRAY", "CDR-L3": "QQYSHLPLV", "group": "En_Gibbs", "Kd (apparent)": "92 nM", "seen in": "6 of 6"}
{"CDR-L1": "KSSQSVLYESRNKNGVA", "CDR-L2": "WASTRVS", "CDR-L3": "QQYHRLPLS", "group": "Ctrl", "Kd (apparent)": "100 nM", "seen in": "4 of 6"}
{"CDR-L1": "KLGQSTAMTSRMKNNVA", "CDR-L2": "DLNERER", "CDR-L3": "QQYHRLPLS", "group": "En_HC", "Kd (apparent)": "1.4 nM", "seen in": "6 of 6"}
{"CDR-L1": "TISNVMNTLTRHGNNVA", "CDR-L2": "DLTERED", "CDR-L3": "QQYFRLPLS", "group": "En_Gen", "Kd (apparent)": "1.1 nM", "seen in": "6 of 6"}
{"CDR-L1": "NISIEDYPENNFANNVA", "CDR-L2": "NTDCRCE", "CDR-L3": "QQYFMLPLM", "group": "En_Gibbs", "Kd (apparent)": "11 nM", "seen in": "6 of 6"}
{"CDR-L1": "IISQSVMGEKRNKNSVA", "CDR-L2": "QTSERNY", "CDR-L3": "QQYDRLPLS", "group": "En_HC", "Kd (apparent)": "11 nM", "seen in": "6 of 6"}
{"CDR-L1": "QLATEVIDNQKLRNSIA", "CDR-L2": "ENELRAM", "CDR-L3": "QQYLMLPLS", "group": "En_Gibbs", "Kd (apparent)": "4.1 nM", "seen in": "6 of 6"}
{"CDR-L1": "KSNISVLYESRNKNSVA", "CDR-L2": "HASTRES", "CDR-L3": "QQYRRLPLS", "group": "Ctrl", "Kd (apparent)": "130 nM", "seen in": "6 of 6"}
{"CDR-L1": "KVSESELYESRNSNSVA", "CDR-L2": "NASYRES", "CDR-L3": "QQYHRLPLS", "group": "GP_Gibbs", "Kd (apparent)": "760 pM", "seen in": "6 of 6"}
{"CDR-L1": "KQSQSVDYESRNKNSVA", "CDR-L2": "DASTRSS", "CDR-L3": "QQYHRLPLS", "group": "GP_HC", "Kd (apparent)": "2.6 nM", "seen in": "6 of 6"}
{"CDR-L1": "IVTQLMLWGWHAKNSIA", "CDR-L2": "EAQTRIN", "CDR-L3": "QQYDRLPLF", "group": "En_Gen", "Kd (apparent)": "no signal", "seen in": "0 of 6"}
{"CDR-L1": "KMWDYEYGTWAMNSAIA", "CDR-L2": "NASLESD", "CDR-L3": "QQYDRLPLT", "group": "En_Gibbs", "Kd (apparent)": "23 nM", "seen in": "6 of 6"}
{"CDR-L1": "KLQGSVMMLSRNDNSVA", "CDR-L2": "DASTRES", "CDR-L3": "QQYHRLPLS", "group": "GP_Gibbs", "Kd (apparent)": "1.3 nM", "seen in": "6 of 6"}
{"CDR-L1": "KVSQSWPYESRNKNSVA", "CDR-L2": "NASQRES", "CDR-L3": "QQYHRLPLS", "group": "GP_Gen", "Kd (apparent)": "930 pM", "seen in": "6 of 6"}
{"CDR-L1": "KSSQSVLYESRNNNSVA", "CDR-L2": "WAKTRES", "CDR-L3": "QQYHRLPLS", "group": "Ctrl", "Kd (apparent)": "4.4 µM", "seen in": "1 of 6"}
{"CDR-L1": "SLMDNIWVEDTYRNAIA", "CDR-L2": "DRNVRAK", "CDR-L3": "QQYHRLPLS", "group": "En_Gibbs", "Kd (apparent)": "8.0 nM", "seen in": "6 of 6"}
{"CDR-L1": "KSSQGWLYESRNKNSVA", "CDR-L2": "GASFRES", "CDR-L3": "QQYHRLPLS", "group": "GP_HC", "Kd (apparent)": "990 pM", "seen in": "6 of 6"}
{"CDR-L1": "KSSFSVLYESFNKNSVA", "CDR-L2": "WAYTRES", "CDR-L3": "QQYHRLPLS", "group": "Ctrl", "Kd (apparent)": "68 nM", "seen in": "2 of 6"}
{"CDR-L1": "KSSQSVKTESRNKNSVA", "CDR-L2": "DASTRES", "CDR-L3": "QQYHRLPLS", "group": "GP_HC", "Kd (apparent)": "2.4 nM", "seen in": "6 of 6"}
{"CDR-L1": "MIYGMDRELGRAANSIA", "CDR-L2": "DNVTRYD", "CDR-L3": "QQYNRLPLD", "group": "En_Gen", "Kd (apparent)": "410 nM", "seen in": "5 of 6"}

For reference, 5 entries of the list once more:

CDR-L1	CDR-L2	CDR-L3	group	Kd (apparent)	seen in
KLQQSVQYESRNQNAVA	EASQRES	QQYHRLPLS	GP_Gibbs	570 pM	6 of 6
KSWQSVLYESRYKNSVA	QASTRES	QQYVRLPLS	Ctrl	1.7 nM	6 of 6
IISQSVMGEKRNKNSVA	QTSERNY	QQYDRLPLS	En_HC	11 nM	6 of 6
SLMDNIWVEDTYRNAIA	DRNVRAK	QQYHRLPLS	En_Gibbs	8.0 nM	6 of 6
KSSQSVKTESRNKNSVA	DASTRES	QQYHRLPLS	GP_HC	2.4 nM	6 of 6

Values reported by Li et al. 2023, doi:10.1038/s41467-023-39022-2 (FLAb copy).